The text below walks through data of ChEMBL document CHEMBL4041469, “The replacement of the 2-methoxy substituent of N-((6,6-diphenyl-1,4-dioxan-2-yl)methyl)-2-(2-methoxyphenoxy)ethan-1-amine improves the selectivity for 5-HT1A receptor over α1-adrenoceptor and D2-like receptor subtypes” (Eur J Med Chem, 2017).

The chains behind the UniProt entries cited, without tags or fusion partners.
UniProt P08908, whole entry: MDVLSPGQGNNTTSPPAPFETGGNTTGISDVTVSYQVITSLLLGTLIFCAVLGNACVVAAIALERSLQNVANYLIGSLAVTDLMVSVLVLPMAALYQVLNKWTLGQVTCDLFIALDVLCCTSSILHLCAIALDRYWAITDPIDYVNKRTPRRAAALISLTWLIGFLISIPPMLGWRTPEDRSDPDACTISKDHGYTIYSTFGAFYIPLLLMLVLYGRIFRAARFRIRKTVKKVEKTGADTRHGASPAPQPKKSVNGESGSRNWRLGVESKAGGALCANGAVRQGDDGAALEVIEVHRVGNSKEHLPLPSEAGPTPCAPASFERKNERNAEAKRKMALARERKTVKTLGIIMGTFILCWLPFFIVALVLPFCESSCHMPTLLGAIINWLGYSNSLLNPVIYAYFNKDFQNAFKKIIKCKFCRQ

This test deals with 5-hydroxytryptamine receptor 1A (Homo sapiens, UniProt P08908). As to the kind of experiment: Agonist activity at recombinant human 5HT1A receptor expressed in human HeLa cell membranes assessed as stimulation of [35S]GTPgammaS binding preincubated for 20 mins followed by [35S]GTPgammaS addition measured after 30 mins by liquid scintillation counting method. The test is classed as functional. For orientation: GTPγS is a poorly hydrolysed GTP analogue; its binding reports G protein activation.

Molecules are shown by their SMILES.

In the case of `COc1ccccc1OCCNC[C@@H]1COC[C@H](c2ccccc2)O1` (racemic), the pD2 amounted to 7.83.
